# This is a selection; strong and weak results do not stand in their true shares. Some results for these compounds are left out of this collection, so the calls shown say nothing about other tests. Calls of active or inactive are those of the source. Cut-off read from the data, not from the text of the source: active = binding response below about 67% or above about 130%; inconclusive = no clear call, values can overlap the other calls; inactive = in between.
# Target: Mitogen-activated protein kinase kinase kinase 2 (Homo sapiens) (UniProt Q9Y2U5)
# Test: wildtype MEKK2 PB1-MEK5 interaction, increase or decrease – biochemical, multiplex bead flow cytometry, Alexa488-MEK5, primary screen (AID 1531)
# Details: Alexa488-MEK5 binding to MEKK2 WT, at 10 µM, actives lie on both sides
row,Compound,binding response (% of control)
1,COc1cc(C(=O)NCC2(N(C)C)CCCCC2)c([N+](=O)[O-])cc1OC,inactive: 92%
2,CN(C)C1(CNC(=O)c2ccc(Br)cc2)CCCCC1,inactive: 104%
3,O=C(NCC1(N2CCCCC2)CCCCC1)c1cccc(Cl)c1,inactive: 99%
4,COc1cccc(C(=O)NCC2(N3CCCCC3)CCCCC2)c1,inactive: 103%
5,COc1ccc(Cl)cc1C(=O)NCC1(N(C)C)CCCCC1,inactive: 111%
6,O=C(OC1CN2CCC1CC2)C(CO)(c1ccccc1)c1ccccc1 (centres undefined),inactive: 98%
7,CC(C)Oc1ccc(C(=O)NCC2(N(C)C)CCCCC2)cc1,inactive: 103%
8,CN(C)c1cccc(C(=O)NCC2(N(C)C)CCCCC2)c1,inactive: 105%
9,COc1ccc(Br)c(C(=O)NCC2(N3CCCCC3)CCCCC2)c1,inactive: 113%
10,CN1[C@@H]2CC[C@H]1CC(OC(=O)C(O)(c1ccccc1)c1ccccc1)C2 (some centres undefined),inactive: 104%
11,O=C(NCC1(N2CCCCC2)CCCCC1)c1cc([N+](=O)[O-])ccc1Cl,inactive: 77%
12,Cc1ccc(C(=O)NCC2(N3CCCCC3)CCCCC2)cc1,inactive: 99%
13,CCN(CC)CC(C)C(C)OC(=O)C(O)(c1ccccc1)c1ccccc1 (centres undefined),inactive: 103%
14,COc1cc(SC)ccc1C(=O)NCC1(N(C)C)CCCCC1,inactive: 107%
15,CC(C)N1C(=O)CC2(CCN(CCOC(=O)C(O)(c3ccccc3)c3ccccc3)CC2)C1=O,inactive: 99%
16,Cc1ccccc1C(=O)NCC1(N2CCCCC2)CCCCC1,inactive: 109%
17,CN(C)c1ccc(C(=O)NCC2(N(C)C)CCCCC2)cc1,inactive: 104%
18,CN(C)C1CCCC1OC(=O)C(O)(c1ccccc1)c1ccccc1 (centres undefined),inactive: 110%
19,COc1ccc(C(=O)NCC2(N(C)C)CCCCC2)cc1,inactive: 105%
20,CCN1CCCC(OC(=O)C2(O)c3ccccc3C=Cc3ccccc32)C1 (centres undefined),inactive: 102%
21,Cc1cc(C(=O)NCC2(N3CCCCC3)CCCCC2)ccc1[N+](=O)[O-],inactive: 116%
22,O=C(NCC1(N2CCCCC2)CCCCC1)c1cccc(Br)c1,inactive: 100%
23,C=CCN1CCN(CCOC(=O)C(O)(c2ccccc2)c2ccccc2)CC1,inactive: 96%
24,O=C(NCC1(N2CCCCC2)CCCCC1)c1cc(F)c(F)cc1Cl,inactive: 99%

# Reference: PubChem BioAssay AID1531 (NMMLSC, 2009)
